Reference: PMC10746543, “Design principles for cyclin K molecular glue degraders” (Nature Chemical Biology, 2023)
“And” between values parts separate entries of the source, which are not always exact repeats. Equal values may be shown once.

The chains behind the UniProt entries cited, without tags or fusion partners. Where a name states a change or a piece, a line headed by the entry shows the natural chain unless it says otherwise. Residues count along the entry.
UniProt Q16531, whole entry: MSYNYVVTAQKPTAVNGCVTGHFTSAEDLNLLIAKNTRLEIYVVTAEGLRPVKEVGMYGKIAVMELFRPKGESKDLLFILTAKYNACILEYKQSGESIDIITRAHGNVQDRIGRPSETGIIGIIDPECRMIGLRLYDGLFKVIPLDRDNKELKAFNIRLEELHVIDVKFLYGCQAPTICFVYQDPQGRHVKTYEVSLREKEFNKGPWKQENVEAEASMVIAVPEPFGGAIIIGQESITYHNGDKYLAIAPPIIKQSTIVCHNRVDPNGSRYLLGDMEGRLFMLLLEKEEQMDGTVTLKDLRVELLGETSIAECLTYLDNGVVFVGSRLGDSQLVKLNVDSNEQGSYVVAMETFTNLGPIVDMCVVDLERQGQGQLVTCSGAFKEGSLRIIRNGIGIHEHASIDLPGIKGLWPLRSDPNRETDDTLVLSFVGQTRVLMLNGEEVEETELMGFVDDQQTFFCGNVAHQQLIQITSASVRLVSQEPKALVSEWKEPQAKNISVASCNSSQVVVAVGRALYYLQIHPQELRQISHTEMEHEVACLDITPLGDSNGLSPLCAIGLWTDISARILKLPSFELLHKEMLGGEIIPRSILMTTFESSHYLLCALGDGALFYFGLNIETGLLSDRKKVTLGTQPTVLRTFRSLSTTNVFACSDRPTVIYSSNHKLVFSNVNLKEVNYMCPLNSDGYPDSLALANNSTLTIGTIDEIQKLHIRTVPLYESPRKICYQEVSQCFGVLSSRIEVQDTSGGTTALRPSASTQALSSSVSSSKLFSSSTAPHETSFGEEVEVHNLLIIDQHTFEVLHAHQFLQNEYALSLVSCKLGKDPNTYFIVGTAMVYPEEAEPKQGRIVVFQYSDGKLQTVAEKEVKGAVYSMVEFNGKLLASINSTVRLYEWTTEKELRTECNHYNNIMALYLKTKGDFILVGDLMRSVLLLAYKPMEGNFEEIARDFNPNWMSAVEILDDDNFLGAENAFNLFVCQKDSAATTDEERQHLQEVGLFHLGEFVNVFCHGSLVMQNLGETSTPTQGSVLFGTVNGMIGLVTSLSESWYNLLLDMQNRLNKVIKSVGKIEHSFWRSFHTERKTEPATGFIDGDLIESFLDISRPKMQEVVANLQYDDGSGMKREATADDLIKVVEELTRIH
UniProt Q9NYV4, 713-1052 K965R: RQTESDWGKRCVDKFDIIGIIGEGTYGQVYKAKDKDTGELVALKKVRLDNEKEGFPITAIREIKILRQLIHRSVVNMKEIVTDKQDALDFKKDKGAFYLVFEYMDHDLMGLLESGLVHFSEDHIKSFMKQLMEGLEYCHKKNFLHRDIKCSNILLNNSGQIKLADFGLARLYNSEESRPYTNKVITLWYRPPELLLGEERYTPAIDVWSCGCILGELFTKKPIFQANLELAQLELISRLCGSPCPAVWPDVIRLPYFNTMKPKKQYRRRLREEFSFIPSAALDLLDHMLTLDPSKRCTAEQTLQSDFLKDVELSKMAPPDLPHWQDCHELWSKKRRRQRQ
UniProt P50750, whole entry: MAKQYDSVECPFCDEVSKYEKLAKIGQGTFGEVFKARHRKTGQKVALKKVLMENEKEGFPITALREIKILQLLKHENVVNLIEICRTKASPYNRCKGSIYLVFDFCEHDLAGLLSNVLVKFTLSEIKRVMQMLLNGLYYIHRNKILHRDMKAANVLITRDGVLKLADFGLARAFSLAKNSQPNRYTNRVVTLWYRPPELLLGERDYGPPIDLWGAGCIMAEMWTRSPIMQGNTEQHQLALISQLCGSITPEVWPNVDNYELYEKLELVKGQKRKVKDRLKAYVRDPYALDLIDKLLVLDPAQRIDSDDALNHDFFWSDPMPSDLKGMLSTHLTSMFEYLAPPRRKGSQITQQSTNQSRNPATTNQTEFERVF

Key:
CDK12–cyclin K and DDB1 [1] = target: T1, CDK12–cyclin K and DDB1 (Homo sapiens, UniProt Q16531+Q9NYV4, K965R); experiment: TR-FRET ternary complex formation assay (compound titration); settings: for TR-FRET signal at compound concentration: replicate titrations
CDK12–cyclin K and DDB1 [2] = target: T1, CDK12–cyclin K and DDB1; experiment: TR-FRET Kd determination, quadratic fit, 50 nM or 10 nM CDK12–cyclin K; type: binding; parameters: His6–CDK12 (a.a. 713–1,052); full-length or beta-propeller B domain deletion (ΔBPB: a.a. 396–705 deleted) constructs of His6–DDB1ΔBPB, StrepII–Avi–DDB1, or His6–Spy–DDB1; made in house; host or cells: Trichoplusia ni High Five insect cells (baculovirus)
CDK9–cyclin T = target: T2, CDK9–cyclin T (Homo sapiens, UniProt P50750); experiment: Lanthascreen kinase binding assay, CDK9; settings: Supplementary Table 2
T2 construct: purchased Thermo Fisher

[3] = compound concentration 79.2001 nM
[4] = compound concentration 158.4 nM
[5] = compound concentration 309.6 nM
[6] = compound concentration 626.401 nM
[7] = compound concentration 1252.8 nM
[8] = compound concentration 9936.01 nM
[9] = compound concentration 20016 nM

## CC[C@H](CO)Nc1nc(NCc2ccccc2)c2ncn(C(C)C)c2n1 [Roscovitine, reference compound]
CDK12–cyclin K and DDB1 [1]; compound concentration 4.68 nM
  TR-FRET signal, individual replicate: 0.2126 and 0.2299 and 0.1257 and 0.1312
  TR-FRET signal at compound concentration: 0.2126 and 0.2299 and 0.1257 and 0.1312
CDK12–cyclin K and DDB1 [1]; compound concentration 4.68 nM, raw replicate titration data
  TR-FRET signal at compound concentration 4.68 nM: 0.2126 and 0.2299 and 0.1257 and 0.1312
CDK12–cyclin K and DDB1 [1]; compound concentration 21.6 nM
  TR-FRET signal, individual replicate: 0.2257 and 0.2471 and 0.1393 and 0.1531
  TR-FRET signal at compound concentration: 0.2257 and 0.2471 and 0.1393 and 0.1531
CDK12–cyclin K and DDB1 [1]; compound concentration 21.6 nM, raw replicate titration data
  TR-FRET signal at compound concentration 21.6 nM: 0.2257 and 0.2471 and 0.1393 and 0.1531
CDK12–cyclin K and DDB1 [1]; compound concentration 36 nM
  TR-FRET signal, individual replicate: 0.262 and 0.2844 and 0.1642 and 0.1813
  TR-FRET signal at compound concentration: 0.262 and 0.2844 and 0.1642 and 0.1813
CDK12–cyclin K and DDB1 [1]; compound concentration 36 nM, raw replicate titration data
  TR-FRET signal at compound concentration 36 nM: 0.262 and 0.2844 and 0.1642 and 0.1813
CDK12–cyclin K and DDB1 [1]; [3]
  TR-FRET signal, individual replicate: 0.3118 and 0.3459 and 0.2061 and 0.2249
  TR-FRET signal at compound concentration: 0.3118 and 0.3459 and 0.2061 and 0.2249
CDK12–cyclin K and DDB1 [1]; compound concentration 79.2001 nM, raw replicate titration data
  TR-FRET signal at compound concentration 79.2001 nM: 0.3118 and 0.3459 and 0.2061 and 0.2249
CDK12–cyclin K and DDB1 [1]; [4]
  TR-FRET signal, individual replicate: 0.3813 and 0.4341 and 0.2653 and 0.3104
  TR-FRET signal at compound concentration: 0.3813 and 0.4341 and 0.2653 and 0.3104
CDK12–cyclin K and DDB1 [1]; compound concentration 158.4 nM, raw replicate titration data
  TR-FRET signal at compound concentration 158.4 nM: 0.3813 and 0.4341 and 0.2653 and 0.3104
CDK12–cyclin K and DDB1 [1]; [5]
  TR-FRET signal, individual replicate: 0.4744 and 0.5369 and 0.3534 and 0.4162
  TR-FRET signal at compound concentration: 0.4744 and 0.5369 and 0.3534 and 0.4162
CDK12–cyclin K and DDB1 [1]; compound concentration 309.6 nM, raw replicate titration data
  TR-FRET signal at compound concentration 309.6 nM: 0.4744 and 0.5369 and 0.3534 and 0.4162
CDK12–cyclin K and DDB1 [1]; [6]
  TR-FRET signal, individual replicate: 0.6027 and 0.6864 and 0.4712 and 0.5089
  TR-FRET signal at compound concentration: 0.6027 and 0.6864 and 0.4712 and 0.5089
CDK12–cyclin K and DDB1 [1]; compound concentration 626.401 nM, raw replicate titration data
  TR-FRET signal at compound concentration 626.401 nM: 0.6027 and 0.6864 and 0.4712 and 0.5089
CDK12–cyclin K and DDB1 [1]; [7]
  TR-FRET signal, individual replicate: 0.7525 and 0.8428 and 0.5942 and 0.637
  TR-FRET signal at compound concentration: 0.7525 and 0.8428 and 0.5942 and 0.637
CDK12–cyclin K and DDB1 [1]; compound concentration 1252.8 nM, raw replicate titration data
  TR-FRET signal at compound concentration 1252.8 nM: 0.7525 and 0.8428 and 0.5942 and 0.637
CDK12–cyclin K and DDB1 [1]; compound concentration 2448 nM
  TR-FRET signal, individual replicate: 0.8856 and 0.9877 and 0.7182 and 0.7806
  TR-FRET signal at compound concentration: 0.8856 and 0.9877 and 0.7182 and 0.7806
CDK12–cyclin K and DDB1 [1]; compound concentration 2448 nM, raw replicate titration data
  TR-FRET signal at compound concentration 2448 nM: 0.8856 and 0.9877 and 0.7182 and 0.7806
CDK12–cyclin K and DDB1 [1]; [8]
  TR-FRET signal, individual replicate: 1.014 and 1.149 and 0.8185 and 0.8884
  TR-FRET signal at compound concentration: 1.014 and 1.149 and 0.8185 and 0.8884
CDK12–cyclin K and DDB1 [1]; compound concentration 9936.01 nM, raw replicate titration data
  TR-FRET signal at compound concentration 9936.01 nM: 1.014 and 1.149 and 0.8185 and 0.8884
CDK12–cyclin K and DDB1 [1]; [9]
  TR-FRET signal, individual replicate: 1.042 and 1.162 and 0.8706 and 0.8937
  TR-FRET signal at compound concentration: 1.042 and 1.162 and 0.8706 and 0.8937
CDK12–cyclin K and DDB1 [1]; compound concentration 20016 nM, raw replicate titration data
  TR-FRET signal at compound concentration 20016 nM: 1.042 and 1.162 and 0.8706 and 0.8937
CDK12–cyclin K and DDB1 [2]; 10 nM CDK12-cyclin K, compound 4.68001 nM
  TR-FRET signal: 0.09223
CDK12–cyclin K and DDB1 [2]; 10 nM CDK12-cyclin K, compound 21.6 nM
  TR-FRET signal: 0.09342
CDK12–cyclin K and DDB1 [2]; 10 nM CDK12-cyclin K, compound 36 nM
  TR-FRET signal: 0.09758
CDK12–cyclin K and DDB1 [2]; 10 nM CDK12-cyclin K, compound 79.2001 nM
  TR-FRET signal: 0.1019
CDK12–cyclin K and DDB1 [2]; 10 nM CDK12-cyclin K, compound 158.4 nM
  TR-FRET signal: 0.1122
CDK12–cyclin K and DDB1 [2]; 10 nM CDK12-cyclin K, compound 309.6 nM
  TR-FRET signal: 0.1249
CDK12–cyclin K and DDB1 [2]; 10 nM CDK12-cyclin K, compound 626.399 nM
  TR-FRET signal: 0.1365
CDK12–cyclin K and DDB1 [2]; 10 nM CDK12-cyclin K, compound 1252.79 nM
  TR-FRET signal: 0.1538
CDK12–cyclin K and DDB1 [2]; 10 nM CDK12-cyclin K, compound 2448 nM
  TR-FRET signal: 0.1657
CDK12–cyclin K and DDB1 [2]; 10 nM CDK12-cyclin K, compound 9936 nM
  TR-FRET signal: 0.1818
CDK12–cyclin K and DDB1 [2]; 10 nM CDK12-cyclin K, compound 20016 nM
  TR-FRET signal: 0.1827
CDK12–cyclin K and DDB1 [2]; 50 nM CDK12-cyclin K, compound 4.68001 nM
  TR-FRET signal: 0.2099
CDK12–cyclin K and DDB1 [2]; 50 nM CDK12-cyclin K, compound 21.6 nM
  TR-FRET signal: 0.215
CDK12–cyclin K and DDB1 [2]; 50 nM CDK12-cyclin K, compound 36 nM
  TR-FRET signal: 0.2441
CDK12–cyclin K and DDB1 [2]; 50 nM CDK12-cyclin K, compound 79.2001 nM
  TR-FRET signal: 0.2709
CDK12–cyclin K and DDB1 [2]; 50 nM CDK12-cyclin K, compound 158.4 nM
  TR-FRET signal: 0.3191
CDK12–cyclin K and DDB1 [2]; 50 nM CDK12-cyclin K, compound 309.6 nM
  TR-FRET signal: 0.3772
CDK12–cyclin K and DDB1 [2]; 50 nM CDK12-cyclin K, compound 626.399 nM
  TR-FRET signal: 0.4718
CDK12–cyclin K and DDB1 [2]; 50 nM CDK12-cyclin K, compound 1252.79 nM
  TR-FRET signal: 0.5706
CDK12–cyclin K and DDB1 [2]; 50 nM CDK12-cyclin K, compound 2448 nM
  TR-FRET signal: 0.6386
CDK12–cyclin K and DDB1 [2]; 50 nM CDK12-cyclin K, compound 9936 nM
  TR-FRET signal: 0.7225
CDK12–cyclin K and DDB1 [2]; 50 nM CDK12-cyclin K, compound 20016 nM
  TR-FRET signal: 0.7219

## CC(C)c1nn(-c2c(Cl)cccc2Cl)c2nc(Cc3ccc(OCCO)cc3)[nH]c(=O)c12 [compound 21195]
CDK9–cyclin T
  IC50: 1 nM
